## AlphaSeq binding of Ab-14 heavy chain variants to a spike HR2 peptide

Source: Li et al. 2023 (doi:10.1038/s41467-023-39022-2), MIT Lincoln Laboratory and A-Alpha Bio; data file from the FLAb repository.

The target is the same throughout: PDVDLGDISGINAS, from the HR2 region of SARS-CoV-2 spike.

Parent: Ab-14, a human scFv built as VH, three GGGGS repeats, VL. Only the CDRs of the heavy chain vary.
VH: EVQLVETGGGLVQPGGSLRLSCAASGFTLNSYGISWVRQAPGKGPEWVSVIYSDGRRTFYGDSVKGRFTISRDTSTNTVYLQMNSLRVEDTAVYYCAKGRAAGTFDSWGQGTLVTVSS
VL: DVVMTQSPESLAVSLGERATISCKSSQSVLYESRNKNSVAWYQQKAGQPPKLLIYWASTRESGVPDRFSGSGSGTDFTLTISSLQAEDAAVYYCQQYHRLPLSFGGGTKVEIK

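Phage display of a naive human antibody library on the peptide gave the parent. The variants were designed computationally from a first round of random CDR variants and then made and measured. Several design methods are mixed in this list. The scFvs were displayed on barcoded MATa yeast, the peptide on MATalpha yeast. Mating (16 h, 30 °C) was followed by selection of diploids and sequencing of their barcodes. Read counts were normalised to the haploid input and turned into Kd by a linear fit to BCL2-family pairs of known affinity, for each replicate. Mating was done six times.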

Sequences are complete VH domains. Affinities are written as log10 Kd with Kd in nM; a lower number is a better binder. A mean of the replicates is given; it leaves out those without a signal. Where no diploid with the target was found in any replicate, the entry reads "nd": below detection, most likely a poor binder, though not proof of it. The authors averaged sequences with at least three values out of six and counted those with two or fewer as poor binders.

With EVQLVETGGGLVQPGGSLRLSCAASGFTLSEYGISWVRQAPGKGPEWVSVIYADGVRVEYTDSVKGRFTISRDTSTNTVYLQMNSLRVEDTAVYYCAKGQLGGSFLVWGQGTLVTVSS the result was 2.73 (1 of 6 replicates; controls 0 of 18).
With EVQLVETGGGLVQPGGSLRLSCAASGFSLNSYGISWVRQAPGKGPEWVSVIYSDGRRTFYGNSVKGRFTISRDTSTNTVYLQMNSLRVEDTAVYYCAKGRATGTFDSWGQGTLVTVSS the result was nd (0 of 6 replicates; controls 0 of 18).
With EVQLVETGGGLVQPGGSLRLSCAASGYALTEYGISWVRQAPGKGPEWVSVIYADGRRTAYSQSVKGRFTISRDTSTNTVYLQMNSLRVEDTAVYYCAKGLNGGIIVVWGQGTLVTVSS the result was nd (0 of 6 replicates; controls 1 of 18).
With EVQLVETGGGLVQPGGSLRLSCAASGHTLNSYGISWVRQAPGKGPEWVSVIYSDGRRTFYGDSVRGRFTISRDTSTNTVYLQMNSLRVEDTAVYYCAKGKAAGTFDSWGQGTLVTVSS the result was 1.01 (6 of 6 replicates; controls 0 of 18).
With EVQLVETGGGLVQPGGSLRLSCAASGFDLNEYGISWVRQAPGKGPEWVSVIYADGKRTAYSDSVKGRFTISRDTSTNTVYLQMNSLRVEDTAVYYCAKGNTAGTFDIWGQGTLVTVSS the result was -0.21 (6 of 6 replicates; controls 0 of 18).
With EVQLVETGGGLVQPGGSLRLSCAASGFHLNSYGISWVRQAPGKGPEWVSVIYSDGRRTFYSDSVKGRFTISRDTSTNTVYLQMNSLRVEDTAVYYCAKGKAAGTFDSWGQGTLVTVSS the result was 1.02 (6 of 6 replicates; controls 0 of 18).
With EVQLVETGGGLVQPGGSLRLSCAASGFTLNSYGISWVRQAPGKGPEWVSVIYSDGRRTFYGDSVKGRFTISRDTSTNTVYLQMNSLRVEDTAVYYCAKGWVAGTFDTWGQGTLVTVSS the result was 1.24 (6 of 6 replicates; controls 0 of 18).
With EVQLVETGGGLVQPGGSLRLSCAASGFDLNEYGISWVRQAPGKGPEWVSVIYADGMRTFYADSVKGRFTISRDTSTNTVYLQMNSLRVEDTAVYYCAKGSEAGTFDMWGQGTLVTVSS the result was -0.02 (6 of 6 replicates; controls 0 of 18).
With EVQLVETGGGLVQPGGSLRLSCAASGFDLEEYGISWVRQAPGKGPEWVSVIYADGVRTAYKNKVKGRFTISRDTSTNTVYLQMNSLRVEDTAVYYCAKGQIAGGQFDWGQGTLVTVSS the result was nd (0 of 6 replicates; controls 0 of 18).
With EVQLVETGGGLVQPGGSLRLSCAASGFDLNEYGISWVRQAPGKGPEWVSVIYADGRRTAYADSVKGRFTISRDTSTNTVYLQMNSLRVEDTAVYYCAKGNEAGTFDVWGQGTLVTVSS the result was -0.51 (6 of 6 replicates; controls 0 of 18).

The remaining entries, values ahead:

Read-out -0.64 (6 of 6 replicates; controls 0 of 18), from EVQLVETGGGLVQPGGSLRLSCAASGFKLNSYGISWVRQAPGKGPEWVSVIYADGRRTFYGDSVKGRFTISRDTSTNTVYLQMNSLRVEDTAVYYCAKGRTAGTFDSWGQGTLVTVSS.
Read-out nd (0 of 6 replicates; controls 0 of 18), from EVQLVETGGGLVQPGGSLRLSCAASGFDLNSYGISWVRQAPGKGPEWVSVDYSDGRRTFYTDSVSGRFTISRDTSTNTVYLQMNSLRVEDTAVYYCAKGRNATTFDSWGQGTLVTVSS.
Read-out 1.09 (6 of 6 replicates; controls 0 of 18), from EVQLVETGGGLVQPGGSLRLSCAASSFSLNSYGISWVRQAPGKGPEWVSVIYSDGRRTFYADSVKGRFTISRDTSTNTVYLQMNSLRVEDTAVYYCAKGRTAGTFDSWGQGTLVTVSS.
Read-out 0.27 (6 of 6 replicates; controls 0 of 18), from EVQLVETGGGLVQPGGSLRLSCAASGFSLNEYGISWVRQAPGKGPEWVSVIYSDGRRTFYGDSVKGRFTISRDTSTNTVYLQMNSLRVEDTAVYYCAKGNTAGTFDSWGQGTLVTVSS.
Read-out 0.72 (6 of 6 replicates; controls 0 of 18), from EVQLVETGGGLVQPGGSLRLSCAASGFELNSYGISWVRQAPGKGPEWVSVIYSDGRRTFYGDSVKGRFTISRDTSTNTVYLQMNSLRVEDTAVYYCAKGSQAGTFDSWGQGTLVTVSS.
Read-out nd (0 of 6 replicates; controls 0 of 18), from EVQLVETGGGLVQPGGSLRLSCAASGFSLNSYGISWVRQAPGKGPEWVSVIYSDGRRTFYGDRVKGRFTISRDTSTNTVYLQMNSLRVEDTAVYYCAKGQAAGTFDSWGQGTLVTVSS.
Read-out nd (0 of 6 replicates; controls 2 of 18), from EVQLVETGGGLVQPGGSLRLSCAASGFKLGEYGISWVRQAPGKGPEWVSVIYADGQRKSYADSVKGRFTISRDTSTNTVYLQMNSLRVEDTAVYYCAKGQSSVYMTAWGQGTLVTVSS.
Read-out 1.74 (2 of 6 replicates; controls 0 of 18), from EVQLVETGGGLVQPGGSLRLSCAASGFTLNEYGISWVRQAPGKGPEWVSVIYSDGRRTFYTDDVKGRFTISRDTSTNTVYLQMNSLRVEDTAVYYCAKGEFAGTFKSWGQGTLVTVSS.
Read-out -0.05 (6 of 6 replicates; controls 1 of 18), from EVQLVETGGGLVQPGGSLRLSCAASGFGLNEYGISWVRQAPGKGPEWVSVIYSDGRRTFYHDSVKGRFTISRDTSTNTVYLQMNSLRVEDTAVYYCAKGRTAGTFDSWGQGTLVTVSS.
Read-out nd (0 of 6 replicates; controls 0 of 18), from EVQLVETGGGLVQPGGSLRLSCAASGFTLNSYGISWVRQAPGKGPEWVSVIYADGRRTFIADSVKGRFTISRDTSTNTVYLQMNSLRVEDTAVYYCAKGRFAGTQKSWGQGTLVTVSS.
Read-out -0.12 (6 of 6 replicates; controls 0 of 18), from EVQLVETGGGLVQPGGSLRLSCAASGFDLNEYGISWVRQAPGKGPEWVSVIYADGLRTAYADDVKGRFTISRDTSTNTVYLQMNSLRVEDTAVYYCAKGENAGTFDMWGQGTLVTVSS.

Extract of 3 entries:

{"VH": "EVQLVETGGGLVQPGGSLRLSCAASGYALTEYGISWVRQAPGKGPEWVSVIYADGRRTAYSQSVKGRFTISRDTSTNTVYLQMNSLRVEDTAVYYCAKGLNGGIIVVWGQGTLVTVSS", "mean, log10 nM": "nd", "detected": "0/6", "signal with controls": "1/18"}
{"VH": "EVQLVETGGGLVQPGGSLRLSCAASGFELNSYGISWVRQAPGKGPEWVSVIYSDGRRTFYGDSVKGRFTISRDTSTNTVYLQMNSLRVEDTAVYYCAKGSQAGTFDSWGQGTLVTVSS", "mean, log10 nM": "0.72", "detected": "6/6", "signal with controls": "0/18"}
{"VH": "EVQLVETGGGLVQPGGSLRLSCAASGFDLEEYGISWVRQAPGKGPEWVSVIYADGVRTAYKNKVKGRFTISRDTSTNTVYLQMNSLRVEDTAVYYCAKGQIAGGQFDWGQGTLVTVSS", "mean, log10 nM": "nd", "detected": "0/6", "signal with controls": "0/18"}

The range of this assay differs from that of the first round, and the authors advise against merging the two. Background: pairings of all heavy chain designs with three empty control strains gave a value in 1% of cases (median 2.08, 5th percentile 0.84). Values in that range, when seen in few replicates, are hard to tell from nonspecific mating. Also given: how often the same scFv was detected with the empty control strains. Of ten entries with the parent sequence, four were seen in most replicates (averages 0.34 to 2.37), three in one and three in none, so single entries are noisy.